## AlphaSeq binding of Ab-14 heavy chain variants to a spike HR2 peptide

Values reported by Li et al. 2023, doi:10.1038/s41467-023-39022-2 (FLAb copy).

Target peptide (SARS-CoV-2 spike, HR2 region): PDVDLGDISGINAS

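The starting antibody came from a phage panning campaign against this peptide. Designed CDR sequences, proposed from the first random library and measured here. Their group label is 14H_GPLM_HC (GPLM: also part of the Gaussian process libraries; HC: hill climbing; a sequence that several methods proposed may carry one label only). In AlphaSeq, yeast of one mating type display the scFv and yeast of the other type display the target. After mating in shaken culture at 30 °C for 16 h, diploids were selected and their barcode pairs sequenced. The ratio of observed to expected reads was calibrated, replicate by replicate, on BCL2-family standards whose Kd was known from biolayer interferometry. Mating was done six times.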

Each scFv is VH, a 15-residue (Gly4Ser)3 linker, VL, as in the parent Ab-14, and differs from it in the CDRs of the heavy chain only.
VH: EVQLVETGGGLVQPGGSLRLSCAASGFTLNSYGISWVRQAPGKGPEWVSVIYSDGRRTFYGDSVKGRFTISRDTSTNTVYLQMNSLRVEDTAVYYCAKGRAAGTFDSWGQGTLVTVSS
VL: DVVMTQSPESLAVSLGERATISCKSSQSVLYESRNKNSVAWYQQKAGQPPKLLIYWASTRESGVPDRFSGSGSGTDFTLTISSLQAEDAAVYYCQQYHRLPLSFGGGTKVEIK

Sequences are complete VH domains.
The read-out is the apparent dissociation constant on a log10 scale (nM): the lower, the stronger.
A mean of the replicates is given; it leaves out those without a signal.
An entry "n.d." has no value in the source: the pair was not observed among the diploids in that replicate. This suggests poor binding but is not conclusive.

{"VH": "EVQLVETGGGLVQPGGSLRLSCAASGFTLNSYGISWVRQAPGKGPEWVSVIYSDGRRTFYSDSVKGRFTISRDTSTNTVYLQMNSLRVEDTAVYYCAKGRAAGFFSSWGQGTLVTVSS", "log10 Kd (nM) by replicate": "n.d. n.d. n.d. n.d. n.d. n.d.", "log10 Kd (nM), mean": "n.d.", "control signals": "2/18 (2.36)"}
{"VH": "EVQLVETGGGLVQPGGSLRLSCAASGFQLNEYGISWVRQAPGKGPEWVSVIYSDGRRTFYIDSVKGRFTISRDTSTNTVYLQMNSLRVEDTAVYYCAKGRAAGTFDSWGQGTLVTVSS", "log10 Kd (nM) by replicate": "n.d. n.d. 0.82 1.08 -0.46 n.d.", "log10 Kd (nM), mean": "0.48", "control signals": "0/18"}
{"VH": "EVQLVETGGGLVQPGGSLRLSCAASGFTLNQYGISWVRQAPGKGPEWVSVIYSDGMRTFYIDSVKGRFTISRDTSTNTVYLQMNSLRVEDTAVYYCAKGRAAGTFDSWGQGTLVTVSS", "log10 Kd (nM) by replicate": "n.d. n.d. 0.74 0.62 2.26 n.d.", "log10 Kd (nM), mean": "1.21", "control signals": "0/18"}
{"VH": "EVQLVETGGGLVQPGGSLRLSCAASGFSLNDYGISWVRQAPGKGPEWVSVIYSDGRRTFYGDSVKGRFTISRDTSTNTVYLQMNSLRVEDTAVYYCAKGRAALTFDRWGQGTLVTVSS", "log10 Kd (nM) by replicate": "n.d. n.d. n.d. n.d. n.d. n.d.", "log10 Kd (nM), mean": "n.d.", "control signals": "0/18"}
{"VH": "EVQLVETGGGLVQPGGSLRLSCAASGFYLNSYGISWVRQAPGKGPEWVSVIYSDGRRTFYDDSVKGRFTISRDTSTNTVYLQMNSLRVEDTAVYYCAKGQEAGTFDSWGQGTLVTVSS", "log10 Kd (nM) by replicate": "n.d. n.d. n.d. n.d. 4.02 n.d.", "log10 Kd (nM), mean": "4.02", "control signals": "1/18 (2.36)"}
{"VH": "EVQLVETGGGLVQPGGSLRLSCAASGFTLNDYGISWVRQAPGKGPEWVSVIYSDGRRTMYIDSVKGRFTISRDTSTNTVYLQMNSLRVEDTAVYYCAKGLAAGTFDSWGQGTLVTVSS", "log10 Kd (nM) by replicate": "0.73 0.71 0.77 0.47 0.70 1.16", "log10 Kd (nM), mean": "0.76", "control signals": "0/18"}
{"VH": "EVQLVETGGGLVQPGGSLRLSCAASGFTLNSYGISWVRQAPGKGPEWVSVIYSDGHRTFYDDSVKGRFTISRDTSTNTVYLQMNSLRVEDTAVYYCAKGKLAGTFDSWGQGTLVTVSS", "log10 Kd (nM) by replicate": "1.54 1.48 2.09 1.05 3.14 2.23", "log10 Kd (nM), mean": "1.92", "control signals": "0/18"}
{"VH": "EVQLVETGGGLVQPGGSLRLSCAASGFTLNQYGISWVRQAPGKGPEWVSVIYSDGQRTFYADSVKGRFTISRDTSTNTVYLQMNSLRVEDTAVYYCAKGRAAGTFDSWGQGTLVTVSS", "log10 Kd (nM) by replicate": "1.42 2.27 0.75 1.47 2.63 2.23", "log10 Kd (nM), mean": "1.80", "control signals": "0/18"}
{"VH": "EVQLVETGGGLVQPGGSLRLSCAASGFQLNEYGISWVRQAPGKGPEWVSVIYSDGRRTFYMDSVKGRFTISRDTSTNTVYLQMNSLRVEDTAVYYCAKGRTAGTFDSWGQGTLVTVSS", "log10 Kd (nM) by replicate": "-0.27 -0.30 0.76 0.19 -0.26 0.13", "log10 Kd (nM), mean": "0.04", "control signals": "0/18"}
{"VH": "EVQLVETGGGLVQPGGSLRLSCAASGFVLNEYGISWVRQAPGKGPEWVSVIYSDGRRTFYGDSVKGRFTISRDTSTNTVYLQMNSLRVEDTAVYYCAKGRAAGTFISWGQGTLVTVSS", "log10 Kd (nM) by replicate": "n.d. n.d. n.d. n.d. n.d. n.d.", "log10 Kd (nM), mean": "n.d.", "control signals": "0/18"}
{"VH": "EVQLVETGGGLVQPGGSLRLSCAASGFSLNDYGISWVRQAPGKGPEWVSVIYSDGRRTFYADSVKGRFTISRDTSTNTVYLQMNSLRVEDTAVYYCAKGRAAGTFISWGQGTLVTVSS", "log10 Kd (nM) by replicate": "n.d. n.d. n.d. n.d. n.d. n.d.", "log10 Kd (nM), mean": "n.d.", "control signals": "0/18"}
{"VH": "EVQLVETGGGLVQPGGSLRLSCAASGFSLNDYGISWVRQAPGKGPEWVSVIYSDGRRTFYGDSVKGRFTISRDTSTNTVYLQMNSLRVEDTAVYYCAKGREAGTFISWGQGTLVTVSS", "log10 Kd (nM) by replicate": "n.d. n.d. n.d. 1.81 n.d. n.d.", "log10 Kd (nM), mean": "1.81", "control signals": "0/18"}
{"VH": "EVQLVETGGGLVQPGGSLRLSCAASGFTLNEYGISWVRQAPGKGPEWVSVIYSDGRRTFYTDSVKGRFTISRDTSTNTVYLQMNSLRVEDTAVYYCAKGRTAGTFSSWGQGTLVTVSS", "log10 Kd (nM) by replicate": "0.39 0.03 0.21 -0.30 0.26 0.19", "log10 Kd (nM), mean": "0.13", "control signals": "1/18 (1.15)"}
{"VH": "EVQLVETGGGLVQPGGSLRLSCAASGFSLNEYGISWVRQAPGKGPEWVSVIYSDGRRTFYSDSVKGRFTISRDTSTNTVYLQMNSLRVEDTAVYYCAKGNAAGTFDSWGQGTLVTVSS", "log10 Kd (nM) by replicate": "0.23 0.19 -0.02 -0.07 -0.22 0.08", "log10 Kd (nM), mean": "0.03", "control signals": "0/18"}
{"VH": "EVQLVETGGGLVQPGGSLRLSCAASGFSLNSYGISWVRQAPGKGPEWVSVIYSDGRRTFYSDSVKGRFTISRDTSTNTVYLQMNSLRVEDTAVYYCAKGMAGGTFDSWGQGTLVTVSS", "log10 Kd (nM) by replicate": "n.d. 1.56 n.d. 1.59 1.49 1.48", "log10 Kd (nM), mean": "1.53", "control signals": "0/18"}
{"VH": "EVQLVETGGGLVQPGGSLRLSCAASGFTLNSYGISWVRQAPGKGPEWVSVIYADGRRTFYGDSVKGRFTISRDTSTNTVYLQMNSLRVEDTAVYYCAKGTAAGTFKSWGQGTLVTVSS", "log10 Kd (nM) by replicate": "0.09 0.27 1.62 0.75 -0.10 0.57", "log10 Kd (nM), mean": "0.53", "control signals": "0/18"}
{"VH": "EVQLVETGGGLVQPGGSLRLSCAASGFELNQYGISWVRQAPGKGPEWVSVIYSDGRRTFYSDSVKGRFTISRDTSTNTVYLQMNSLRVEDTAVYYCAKGRAAGHFDSWGQGTLVTVSS", "log10 Kd (nM) by replicate": "n.d. n.d. n.d. n.d. n.d. n.d.", "log10 Kd (nM), mean": "n.d.", "control signals": "0/18"}
{"VH": "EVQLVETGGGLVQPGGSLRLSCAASGFTLNSYGISWVRQAPGKGPEWVSVIYSDGRRTQYADSVKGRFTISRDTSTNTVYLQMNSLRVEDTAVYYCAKGQAAGTFDSWGQGTLVTVSS", "log10 Kd (nM) by replicate": "n.d. 2.03 1.61 1.79 1.24 n.d.", "log10 Kd (nM), mean": "1.67", "control signals": "1/18 (1.62)"}
{"VH": "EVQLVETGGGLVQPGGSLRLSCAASGFTLNEYGISWVRQAPGKGPEWVSVIYSDGRRTFYGDSVKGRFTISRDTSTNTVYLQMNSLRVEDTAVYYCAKGRAALTFDVWGQGTLVTVSS", "log10 Kd (nM) by replicate": "n.d. n.d. n.d. n.d. n.d. n.d.", "log10 Kd (nM), mean": "n.d.", "control signals": "0/18"}
{"VH": "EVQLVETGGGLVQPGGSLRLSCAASGFTLNSYGISWVRQAPGKGPEWVSVIYSDGRRTFYSDSVKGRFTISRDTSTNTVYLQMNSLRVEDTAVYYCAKGRAGVTFDSWGQGTLVTVSS", "log10 Kd (nM) by replicate": "n.d. n.d. n.d. n.d. n.d. n.d.", "log10 Kd (nM), mean": "n.d.", "control signals": "0/18"}

Top 3 of the variants detected in all replicates, tightest first:

{"VH": "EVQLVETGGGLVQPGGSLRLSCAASGFSLNEYGISWVRQAPGKGPEWVSVIYSDGRRTFYSDSVKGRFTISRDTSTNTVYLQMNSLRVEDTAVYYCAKGNAAGTFDSWGQGTLVTVSS", "log10 Kd (nM) by replicate": "0.23 0.19 -0.02 -0.07 -0.22 0.08", "log10 Kd (nM), mean": "0.03", "control signals": "0/18"}
{"VH": "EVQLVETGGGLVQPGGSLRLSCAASGFQLNEYGISWVRQAPGKGPEWVSVIYSDGRRTFYMDSVKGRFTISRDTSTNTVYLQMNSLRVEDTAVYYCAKGRTAGTFDSWGQGTLVTVSS", "log10 Kd (nM) by replicate": "-0.27 -0.30 0.76 0.19 -0.26 0.13", "log10 Kd (nM), mean": "0.04", "control signals": "0/18"}
{"VH": "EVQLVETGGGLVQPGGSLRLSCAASGFTLNEYGISWVRQAPGKGPEWVSVIYSDGRRTFYTDSVKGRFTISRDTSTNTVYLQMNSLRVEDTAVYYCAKGRTAGTFSSWGQGTLVTVSS", "log10 Kd (nM) by replicate": "0.39 0.03 0.21 -0.30 0.26 0.19", "log10 Kd (nM), mean": "0.13", "control signals": "1/18 (1.15)"}

Background: pairings of all heavy chain designs with three empty control strains gave a value in 1% of cases (median 2.08, 5th percentile 0.84). Values in that range, when seen in few replicates, are hard to tell from nonspecific mating. For each scFv, signals with the empty controls are counted beside the result, with their mean in brackets.
The authors averaged sequences with at least three values out of six and counted those with two or fewer as poor binders.
A sequence measured in both rounds can read differently, since the two assays cover different ranges.